Test results: patent US20240238281A1, “PIPERAZINE DERIVATIVES AND APPLICATION THEREOF” (priority 2021, published 2024)

Protein sequences, listed by entry. Tags and fused reporters are not part of them.
UniProt P32245, whole entry: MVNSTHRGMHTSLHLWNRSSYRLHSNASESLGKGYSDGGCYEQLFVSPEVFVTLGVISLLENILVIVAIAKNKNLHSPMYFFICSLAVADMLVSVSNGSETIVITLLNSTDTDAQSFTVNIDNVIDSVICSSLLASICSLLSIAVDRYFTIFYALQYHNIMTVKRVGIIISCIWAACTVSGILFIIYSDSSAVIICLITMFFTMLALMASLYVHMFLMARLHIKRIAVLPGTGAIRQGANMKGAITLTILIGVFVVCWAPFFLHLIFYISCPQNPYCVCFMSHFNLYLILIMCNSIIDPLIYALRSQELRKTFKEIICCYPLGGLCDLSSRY
UniProt Q01726, whole entry: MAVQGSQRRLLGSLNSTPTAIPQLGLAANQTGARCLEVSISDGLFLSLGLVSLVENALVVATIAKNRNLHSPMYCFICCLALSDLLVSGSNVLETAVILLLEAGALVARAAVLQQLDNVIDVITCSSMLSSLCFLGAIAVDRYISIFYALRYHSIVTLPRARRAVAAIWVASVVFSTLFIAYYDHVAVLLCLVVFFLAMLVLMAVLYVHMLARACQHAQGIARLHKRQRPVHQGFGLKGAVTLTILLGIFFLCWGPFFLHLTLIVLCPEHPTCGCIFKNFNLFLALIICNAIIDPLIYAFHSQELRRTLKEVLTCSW
UniProt P41968, whole entry: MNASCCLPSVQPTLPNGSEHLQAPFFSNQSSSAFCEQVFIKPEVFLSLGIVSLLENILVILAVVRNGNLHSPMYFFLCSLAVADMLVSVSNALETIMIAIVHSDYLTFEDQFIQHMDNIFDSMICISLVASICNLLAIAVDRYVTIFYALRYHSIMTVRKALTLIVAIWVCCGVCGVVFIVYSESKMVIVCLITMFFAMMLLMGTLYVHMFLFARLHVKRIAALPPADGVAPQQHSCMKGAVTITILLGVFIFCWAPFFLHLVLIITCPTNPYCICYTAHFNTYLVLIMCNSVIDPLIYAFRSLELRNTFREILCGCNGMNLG
UniProt P33032, whole entry: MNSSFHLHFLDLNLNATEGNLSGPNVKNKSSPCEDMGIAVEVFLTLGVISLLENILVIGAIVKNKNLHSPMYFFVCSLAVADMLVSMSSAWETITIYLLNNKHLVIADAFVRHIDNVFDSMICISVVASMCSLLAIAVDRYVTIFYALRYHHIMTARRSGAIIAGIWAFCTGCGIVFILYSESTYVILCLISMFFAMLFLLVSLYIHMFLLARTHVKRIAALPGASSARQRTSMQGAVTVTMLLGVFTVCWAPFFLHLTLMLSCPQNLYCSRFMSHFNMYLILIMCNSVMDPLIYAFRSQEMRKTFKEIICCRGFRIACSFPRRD

Assays:
Type in all cases: cell-based
MC4R = MC4R (Homo sapiens, UniProt P32245); experiment: In vitro activity of MCR receptors, intracellular cAMP signal (HEK293T/MCR cell line), MC4R; settings: read-out: MC4R EC50, tested form: HCl
Protocol: (§1) Test purpose: to evaluate the agonistic effect of the compound on MCRs by detecting intracellular cAMP signal changes.
(§2) Cells were resuspended with 1×PBS+500 μM IBMX. 10 μL of the cell suspension was added into a 384-well plate to be tested, and the cell concentration was adjusted to 1×10^4 cells per well for later use. A pre-prepared solution of the compound to be tested was added, and dimethyl sulfoxide of the same volume was added to blank control wells. The test plate was centrifuged at 300 rpm for 1 minute, incubated at 37° C. for 30 minutes, and added with 5 μL of cAMP-d2 and 5 μL of a CAMP-cry antibody detection reagent. The test plate was centrifuged at 300 rpm for 1 minute, and incubated at room temperature for 60 minutes. The test plate was placed in the Envision multifunctional microplate reader for reading, with a detection wavelength of 665/615 nm.

MC1R = MC1R (Homo sapiens, UniProt Q01726); experiment: In vitro activity of MCR receptors, intracellular cAMP signal (HEK293T/MCR cell line), MC1R; settings: read-out: MC1R EC50, tested form: HCl
MC3R = MC3R (Homo sapiens, UniProt P41968); experiment: In vitro activity of MCR receptors, intracellular cAMP signal (HEK293T/MCR cell line), MC3R; settings: read-out: MC3R EC50, tested form: HCl
MC5R = MC5R (Homo sapiens, UniProt P33032); experiment: In vitro activity of MCR receptors, intracellular cAMP signal (HEK293T/MCR cell line), MC5R; settings: read-out: MC5R EC50, tested form: HCl
Protocol: as §1, §2

For `C[C@@H]1CN(C(=O)[C@@H]2CN(C(C)(C)C)C[C@H]2c2ccc(Br)cc2)C[C@H](C)N1c1ccc(F)cc1` (relative stereo), the EC50 (MC4R) was 18 nM, the EC50 (MC1R) was 55 nM and the EC50 (MC3R) was 1470 nM. For the same molecule, the EC50 (MC5R) was 2800 nM.
